The target in one series is P-glycoprotein (P-gp) (Homo sapiens, UniProt P08183). As to conditions: without altering the protein expression level of P-gp (Susa 2010); cited from earlier work.
The next series addresses CAMKII gamma (Homo sapiens, UniProt Q13555). Put plainly: CAMKII gamma kinase activity (ADP Glo). As to conditions: 30-250 uM, 10 or 50 uM ATP. Format: biochemical.

Chains of the proteins cited; added tags and fusions are not shown.
UniProt P08183, whole entry: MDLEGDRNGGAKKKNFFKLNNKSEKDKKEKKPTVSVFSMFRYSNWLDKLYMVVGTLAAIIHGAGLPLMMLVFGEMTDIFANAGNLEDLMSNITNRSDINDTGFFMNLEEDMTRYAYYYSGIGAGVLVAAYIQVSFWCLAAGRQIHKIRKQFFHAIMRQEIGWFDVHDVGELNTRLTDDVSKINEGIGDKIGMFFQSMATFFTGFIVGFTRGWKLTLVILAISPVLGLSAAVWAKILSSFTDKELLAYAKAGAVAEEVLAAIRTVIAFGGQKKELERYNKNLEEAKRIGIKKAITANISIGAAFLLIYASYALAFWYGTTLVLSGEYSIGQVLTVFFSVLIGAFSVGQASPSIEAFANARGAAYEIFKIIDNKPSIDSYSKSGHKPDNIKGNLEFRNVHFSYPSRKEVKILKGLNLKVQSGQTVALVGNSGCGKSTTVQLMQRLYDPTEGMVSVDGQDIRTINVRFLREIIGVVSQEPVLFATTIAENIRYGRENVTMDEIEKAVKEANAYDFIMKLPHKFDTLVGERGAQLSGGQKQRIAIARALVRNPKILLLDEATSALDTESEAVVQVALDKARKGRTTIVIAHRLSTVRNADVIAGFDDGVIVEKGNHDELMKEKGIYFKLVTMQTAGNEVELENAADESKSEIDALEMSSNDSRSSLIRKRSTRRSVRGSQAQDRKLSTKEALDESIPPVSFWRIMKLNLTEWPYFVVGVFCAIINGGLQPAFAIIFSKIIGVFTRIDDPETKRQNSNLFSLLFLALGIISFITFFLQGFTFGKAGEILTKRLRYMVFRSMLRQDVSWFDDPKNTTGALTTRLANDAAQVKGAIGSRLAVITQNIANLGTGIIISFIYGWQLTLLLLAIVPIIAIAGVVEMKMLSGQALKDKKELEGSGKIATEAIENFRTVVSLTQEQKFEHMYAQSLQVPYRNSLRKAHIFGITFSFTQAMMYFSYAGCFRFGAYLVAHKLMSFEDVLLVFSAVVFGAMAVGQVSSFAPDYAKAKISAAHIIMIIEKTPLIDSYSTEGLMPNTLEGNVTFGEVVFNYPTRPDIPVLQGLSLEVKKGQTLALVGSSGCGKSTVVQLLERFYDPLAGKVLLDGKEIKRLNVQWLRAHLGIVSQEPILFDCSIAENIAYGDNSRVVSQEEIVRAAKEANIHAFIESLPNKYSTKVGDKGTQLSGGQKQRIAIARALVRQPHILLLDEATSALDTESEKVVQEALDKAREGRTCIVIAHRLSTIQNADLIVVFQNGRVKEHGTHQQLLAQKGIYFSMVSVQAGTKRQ
UniProt Q13555, whole entry: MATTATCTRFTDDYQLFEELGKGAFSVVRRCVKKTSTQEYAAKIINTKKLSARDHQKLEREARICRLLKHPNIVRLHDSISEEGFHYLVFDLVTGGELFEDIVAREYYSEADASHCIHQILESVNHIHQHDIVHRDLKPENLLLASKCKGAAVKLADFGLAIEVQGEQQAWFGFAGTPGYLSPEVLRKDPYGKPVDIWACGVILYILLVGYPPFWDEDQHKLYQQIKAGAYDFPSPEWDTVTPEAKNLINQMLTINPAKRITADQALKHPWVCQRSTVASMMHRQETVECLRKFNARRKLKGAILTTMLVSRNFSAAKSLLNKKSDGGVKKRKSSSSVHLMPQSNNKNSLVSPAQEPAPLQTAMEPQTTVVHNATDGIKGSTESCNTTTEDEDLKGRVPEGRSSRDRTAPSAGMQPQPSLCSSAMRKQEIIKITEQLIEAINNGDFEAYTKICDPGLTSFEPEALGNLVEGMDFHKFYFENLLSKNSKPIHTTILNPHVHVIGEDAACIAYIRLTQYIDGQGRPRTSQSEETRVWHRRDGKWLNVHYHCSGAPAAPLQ

Molecules are shown by their SMILES.

`COc1ccc2cc1Oc1ccc(cc1)C[C@H]1c3cc(c(OC)cc3CCN1C)Oc1c(OC)c(OC)cc3c1[C@H](C2)N(C)CC3`: at P-glycoprotein (P-gp), the “function of Pgp” value was “directly inhibits the function of Pgp in a dose-dependent manner”. In addition, the “CAMKII gamma kinase activity inhibition (in words)” value at CAMKII gamma is reported as “inhibited CAMKII gamma kinase activity in a dose dependent manner”.

The values are drawn from patent US20240307373A1, “METHODS OF USE AND COMPOSITIONS OF BISBENZYLISOQUINOLINES FOR THE TREATMENT OF MALIGNANCIES” (priority 2023, published 2024).
